{"source": "ChEMBL document CHEMBL2407019", "test_system": "Hippocampus", "assay": "Neuroprotective activity in Sprague-Dawley rat hippocampal slice assessed as reversal of DFP-induced damage at 10 uM measured after 2 hrs by electrophysiological assay", "note": "Active and inactive are the calls of the source. The calls are words filed in the database; no cut-off is given here.", "data": [{"compound": "CO[C@@]1(C)/C=C/[C@H](C(C)C)CC/C(C)=C\\CC/C(C)=C\\[C@H](O)C1", "values": [{"measurement": "Activity", "result": "inactive"}]}]}
